Experimental data: US20170209579A1, “NON-INVASIVE RADIOFREQUENCY FIELD TREATMENT FOR CANCER THERAPY” (Baylor College of Medicine, priority 2014, published 2017)

Experiments:
4T1 tumors [1] = test: RF-enhanced albumin tracer perfusion into 4T1 tumors, immunofluorescent staining (positive area fraction); assay type: in vivo, mouse; conditions: albumin-Alexa Fluor 647 10 mg/Kg retro-orbital, RF until 41° C., n=6
Text: (§1) Nude mice (4-6 wk old) were obtained from Charles River Laboratories, Inc. (Wilmington, Mass.). Breast tumors were established using fluorescent 4T1 td-Tomato Bioware® Ultra Red mouse mammary cancer cells purchased from Caliper Life Sciences (Hopkinton, Mass.). Palpable tumors were used once reaching a size ˜5-7 mm in diameter. Pancreatic PANC-1 tumors were generated by an orthotopic injection of 5×10^5 cells (ATCC, Manassas, Va.) into the pancreas of nude mice (ages 4 to 6 weeks). Palpable tumors were used once reaching a size ˜5-7 mm in diameter (250-350 mm^3). Animals were euthanized via CO2 exposure followed by cervical dislocation. All procedures were performed in accordance with protocols approved by the Institutional Animal Care and Use Committee at Baylor College of Medicine and Houston Methodist Research Institute and according to the NIH Guide for the Care and Use of Laboratory Animals.
RF-IVM animal manipulation.
(§2) Immunofluorescent imaging. The complete macro-perfusion and uptake of fluorescent tracers throughout the tumor in RF and non-RF treated mice was also analyzed ex vivo using immunofluorescent imaging. This allowed for comparison to the analysis of perfusion of the tracers into the tumor at μm depths obtained using the IVM system. […] The images were captured using Nikon Al confocal microscope and analyzed using Nikon Elements v3.2. […]

4T1 tumors [2] = test: Real-time RF-IVM imaging of fluorescent tracer perfusion into 4T1 tumors (imaging algorithm)
[3] = system: orthotopic PANC-1 pancreatic tumors; test: RF-enhanced albumin perfusion in orthotopic PANC-1 pancreatic tumors (immunofluorescent staining); assay type: in vivo, mouse; conditions: orthotopic PANC-1 tumors
Text: as §1, with “Animals. […]” for “Animals.”
as §2, with “imaging.” for “imaging. This allowed for comparison to the analysis of perfusion of the tracers into the tumor at μm depths obtained using the IVM system.”

albumin: fluorescent-bound albumin tracer, MW˜66 kDa, Life Technologies
albumin perfusion into the tumor (positive area fraction), RF-treated mice compared to controls (4T1 tumors [1]): five times enhancement
albumin perfusion from blood vessels into the tumor (4T1 tumors [2]; RF treatment duration 4.5 minutes): perfusion of the albumin tracer out of blood vessels and into the tumor
relative tumor dye intensity (RTDI) (4T1 tumors [2]; albumin 10 mg/Kg administered immediately after 30 minutes RF, imaged 25 minutes without RF): rapid increase in RTDI
albumin perfusion from the blood network into the tumor (4T1 tumors [2]; control, no RF, imaged 30 minutes): very little albumin perfused
albumin in the pancreatic tumor (positive area fraction), RF compared to control [3]: approximately six times more albumin
